This is a sample that favours compounds with a hit; in the whole collection about 3.7% have one here.
p53 reactivation – mutant p53 re-activation in reporter cells; H1299 p53-A138V BP100-luciferase reporter, luminescence, 24 h; Potency, µM (top dose mostly 92.2 µM), for the others: at the highest dose activity change, positive = activation, hits mostly activators; hit rate 0.063% among 320,000; note: potency is the fitted concentration of half-maximal effect; % of control where 0% means no effect; nearly all actives have a fitted effect of over 45% in size
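p53-null H1299 cells stably carrying temperature-sensitive p53-A138V and a BP100-luciferase reporter were pinned with compounds (4-point, 1:5 series) and held 24 hrs at 37 deg C. Luminescence was read 10 min after detection reagent.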
ClpP mod – qHTS Assay for Activators of ClpP. purified B. subtilis ClpP, FRET peptide cleavage, 20 min. Potency, µM (series often up to 57.5 µM), without a hit: at the top dose activity change, negative = active. hit rate 1.9% among 340,000; active = well fitted falling curve with a large enough effect; inconclusive = small, poorly fitted or top-dose-only effect; inactive = no such curve, though single readings can be large or run the other way; note: potency is the fitted concentration of half-maximal effect; the source files actives as falling curves though it sought activators and does not explain the sign; nearly all actives have a fitted effect of over 65% in size
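ClpP 10 microg/mL final, pH 8 Tris/KCl buffer with BSA, glycerol, Tween-20; compound pinned in; FRET-FV substrate; RT 20 min; Ex320/Em430; ΔFRET vs ADEP 5.8 microM, DMSO, no enzyme.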
Nrf2 activator – activates Nrf2 signaling; AREc32 ARE-luciferase reporter (MCF7-derived line), luminescence, 24 h; Potency, µM (titrated, usually from 46.1 µM), inactives show top-dose activation, actives largely listed as activators; hit rate 0.31% among 410,000; note: potency is the fitted concentration of half-maximal effect; % of control where 0% means no effect; nearly all actives have a fitted effect of over 65% in size
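For detection, Steady-Glo was added and plates sat 30 min at RT; before that, AREc32_Fluc cells grown overnight in OPTI-MEM/5% FBS had been treated with 23 nL compound for 24 hr at 37 deg C.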
A549 viability – counter-screen for Nrf2 inhibitors: cytotoxicity in A549 cells. hit rate 0.16% among 390,000. A549 ARE-Fluc cells, CellTiter-Fluor viability, 18-24 h. Potency, µM (highest dose often 46 µM), inactives show at the top dose activity change, negative = cytotoxicity, actives largely listed as inhibitors; note: potency is the fitted concentration of half-maximal effect; % is set by controls: 0 for no effect and ±100 for the full control effect
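A549 ARE_Fluc cells in 5% FBS OPTI-MEM were exposed to compounds in concentration-response for 18-24 h at 37 deg C. Viability was read by CellTiter-Fluor fluorescence (Ex 405/Em 525) after 30 min, before the luciferase read.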
Nrf2 block – Nrf2 pathway inhibition; A549 ARE-Fluc reporter, luciferase luminescence, 18-24 h; Potency, µM (top dose mostly 46 µM), inactives show at the highest dose activity change, negative = inhibition, most hits filed as inhibitors; hit rate 2.1% among 360,000; note: potency is the fitted concentration of half-maximal effect; % is set by controls: 0 for no effect and ±100 for the full control effect; nearly all actives have a fitted effect of over 60% in size
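In this cell-based qHTS, ARE-driven firefly luciferase in A549 cells reports Nrf2 activity; the luminescent signal after BugLite lysis is the measured value, with a prior CellTiter-Fluor read for cell health.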
miR-21 FLuc – miR-21 reporter, rising signal; HeLa miR-21 FLuc reporter, luciferase, 48 h; Potency, µM (highest dose often 38.3 µM), for the others: top-dose reporter change, positive = more light; 340,000 tested, under 10 active; AID 2288; active = well fitted rising curve with a large enough effect; inconclusive = small, poorly fitted or top-dose-only effect; inactive = no such curve, though single readings can be large or run the other way;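 further: % of control where 0% means no effect; miR-21 action dims this reporter so a rising signal means less miR-21 action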
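Luminescence from a firefly luciferase reporter carrying a miR-21 binding site downstream, stably expressed under a CMV promoter in HeLa cells that make miR-21 endogenously, reports miRNA modulation after 48 h compound exposure up to approximately 40uM final.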
* marks the source's active call; other numbers are inactive results. Unless noted, calls come from the whole dose curve; as a rule, active = well fitted curve in the direction sought with a large enough effect; inconclusive = small, poorly fitted or top-dose-only effect, or another doubt; inactive = no such curve, though single readings can be large; an effect the other way counts as inactive or inconclusive.

How did CCC(=O)Nc1nnc(-c2cccs2)s1 do in these assays?
p53 reactivation: 5.0%; Nrf2 activator: 24.5%; A549 viability: 0.2%; Nrf2 block: inconclusive; miR-21 FLuc: -43.0%

What do the screens show for `O=C(Cc1ccccc1)Nc1nnc(-c2cccs2)s1`?
p53 reactivation: inconclusive; ClpP mod: 20µM*; Nrf2 activator: 8.0%; A549 viability: -7.6%; Nrf2 block: -10.0%; miR-21 FLuc: -43.3%

How did O=C(Cc1cccs1)Nc1nnc(-c2ccncc2)s1 do in these assays?
p53 reactivation: 10.9%; ClpP mod: 28.2µM*; Nrf2 activator: 0.0%; A549 viability: 0.3%; Nrf2 block: -2.8%; miR-21 FLuc: -14.9%

Results for O=C(Cc1cccs1)Nc1nnc(Cc2ccccc2)s1 ?
p53 reactivation: 0.9%; ClpP mod: 1.4%; Nrf2 activator: 5.6%; A549 viability: 5.6%; miR-21 FLuc: -21.1%

Results for O=C(COc1ccc(F)cc1)Nc1nnc(-c2ccncc2)s1 ?
p53 reactivation: -4.1%; ClpP mod: 25.1µM*; Nrf2 activator: 0.2%; A549 viability: 7.9%; Nrf2 block: inconclusive; miR-21 FLuc: -4.8%

Results for Cc1ccc(CNC(=O)c2c[nH]c3ccc(S(=O)(=O)Nc4ccc(C(C)C)cc4)cc3c2=O)cc1 ?
ClpP mod: -12.9%; Nrf2 activator: -1.4%; A549 viability: -9.0%; miR-21 FLuc: 4.2%

How did CCCCc1ccc(NC(=O)Cn2cnc3c(oc4ccccc43)c2=O)cc1 do in these assays?
ClpP mod: 1.0%; Nrf2 activator: 0.4%; A549 viability: -12.9%; Nrf2 block: -8.5%; miR-21 FLuc: -9.2%

Results for CCC(C)C(=O)Nc1nnc(-c2cccs2)s1 (stereo not given) ?
p53 reactivation: inconclusive; ClpP mod: 31.6µM*; Nrf2 activator: inconclusive; A549 viability: -14.8%; Nrf2 block: -20.9%; miR-21 FLuc: -49.3%

How did COC(=O)c1ccccc1NC(=O)CCCn1c(=O)c2cccn2c2cccnc21 do in these assays?
ClpP mod: inconclusive; Nrf2 activator: 7.2%; A549 viability: 19.1%; Nrf2 block: -0.3%; miR-21 FLuc: -6.3%

Results for N#Cc1c(NC(=O)CSc2ncn[nH]2)sc2c1CCCC2 ?
p53 reactivation: -5.2%; ClpP mod: 0.6%; Nrf2 activator: -1.7%; A549 viability: -6.4%; Nrf2 block: 4.11µM*; miR-21 FLuc: inconclusive

Reprinted from the part before: 2 entries, then new ones.
How did COC(=O)c1ccccc1NC(=O)CCCn1c(=O)c2cccn2c2cccnc21 do in these assays?
ClpP mod: inconclusive; Nrf2 activator: 7.2%; A549 viability: 19.1%; Nrf2 block: -0.3%; miR-21 FLuc: -6.3%

Results for N#Cc1c(NC(=O)CSc2ncn[nH]2)sc2c1CCCC2 ?
p53 reactivation: -5.2%; ClpP mod: 0.6%; Nrf2 activator: -1.7%; A549 viability: -6.4%; Nrf2 block: 4.11µM*; miR-21 FLuc: inconclusive

Results for CC1CCc2c(sc(NC(=O)CSc3ncn[nH]3)c2C#N)C1 (stereo not given) ?
p53 reactivation: -11.5%; ClpP mod: 1.9%; Nrf2 activator: -3.0%; A549 viability: -10.0%; Nrf2 block: 7.31µM*; miR-21 FLuc: inconclusive

Results for CC(C)(C)C1CCc2c(sc(NC(=O)CSc3ncn[nH]3)c2C#N)C1 (stereo not given) ?
p53 reactivation: -9.7%; ClpP mod: 0.1%; Nrf2 activator: -1.3%; A549 viability: inconclusive; Nrf2 block: inconclusive; miR-21 FLuc: 2.3%

Results for N#Cc1c(NC(=O)CSc2nc(-c3ccccc3)cc(C(F)(F)F)n2)sc2c1CCC2 ?
p53 reactivation: -2.5%; ClpP mod: 25.1µM*; Nrf2 activator: -1.0%; A549 viability: -0.3%; Nrf2 block: inconclusive; miR-21 FLuc: -5.4%

How did COc1ccc(-c2cc(C(F)(F)F)nc(SCC(=O)Nc3sc4c(c3C#N)CCC4)n2)cc1 do in these assays?
p53 reactivation: -2.9%; ClpP mod: -27.6%; Nrf2 activator: -0.2%; A549 viability: -21.1%; Nrf2 block: inconclusive; miR-21 FLuc: -11.0%

Results for CCN(C(=O)CSc1nc2ncccc2[nH]1)c1ccc(C(C)C)cc1 ?
ClpP mod: -1.1%; Nrf2 activator: 1.6%; A549 viability: -9.0%; Nrf2 block: 2.4%; miR-21 FLuc: 3.4%

High-throughput results as filed in PubChem BioAssay.
